Measured values: patent US9725465B2, “Biaryl acetamide compounds and methods of use thereof” (Ambit Biosciences Corporation, priority 2013, dated 2017)

Experiments:
[1] = tested on: Ba/F3 cells expressing FLT3-ITD-D835V
[2] = tested on: Ba/F3 cells expressing FLT3-ITD
FLT3-ITD-D835V = FLT3-ITD-D835V (Homo sapiens (Human), UniProt P36888, D835V/INS600HVDFREYEYD); assay: pFLT3 MSD assay, Ba/F3 FLT3-ITD-D835V; assay type: cell-based; settings: Ba/F3 FLT3-ITD-D835V cells, 2 hours, read-out: BaF3-FLT3-ITD-D835V pFlt3 IC50
FLT3-ITD-F691L = FLT3-ITD-F691L (Homo sapiens (Human), UniProt P36888, F691L/INS600HVDFREYEYD); assay: pFLT3 MSD assay, Ba/F3 FLT3-ITD-F691L; assay type: cell-based; settings: Ba/F3 FLT3-ITD-F691L cells, 2 hours, read-out: BaF3-FLT3-ITD-F691L pFlt3 IC50

Measured: pIC50

COc1cc2ncc(-c3ccc(CC(=O)Nc4cc(C5(C(F)(F)F)CC5)on4)cc3)nc2cc1OC [Example 1, 2-(4-(6,7-dimethoxyquinoxalin-2-yl)phenyl)-N-(5-(1-(trifluoromethyl)cyclopropyl)isoxazol-3-yl)acetamide]
> 8.00: all assays above

COc1cc2ncc(-c3ccc(CC(=O)Nc4cc(C5(C(F)(F)F)CC5)on4)c(F)c3)nc2cc1OC [Example 4, 2-(4-(6,7-dimethoxyquinoxalin-2-yl)-2-fluorophenyl)-N-(5-(1-(trifluoromethyl)cyclopropyl)isoxazol-3-yl)acetamide]
> 8.00: all assays above

COc1cc2cc(-c3ccc(CC(=O)Nc4cc(C5(C(F)(F)F)CC5)on4)cc3)cnc2cc1OC [Example 5, 2-(4-(6,7-dimethoxyquinolin-3-yl)phenyl)-N-(5-(1-(trifluoromethyl)cyclopropyl)isoxazol-3-yl)acetamide]
> 8.00: all assays above

COc1cc2ncc(-c3ccc(CC(=O)Nc4cc(C(C)(C)C)on4)cc3)nc2cc1OC [Example 6, N-(5-(tert-butyl)isoxazol-3-yl)-2-(4-(6,7-dimethoxyquinoxalin-2-yl)phenyl)acetamide]
> 8.00: all assays above

COc1cc2ncc(-c3ccc(CC(=O)Nc4cc(C(C)(C)C(F)(F)F)on4)cc3)nc2cc1OC [Example 8, 2-(4-(6,7-dimethoxyquinoxalin-2-yl)phenyl)-N-(5-(1,1,1-trifluoro-2-methylpropan-2-yl)isoxazol-3-yl)acetamide]
> 8.00: all assays above

O=C(Cc1ccc(-c2cnc3[nH]ncc3c2)cc1)Nc1cc(C2(C(F)(F)F)CC2)on1 [Example 15, 2-(4-(1H-pyrazolo[3,4-b]pyridin-5-yl)phenyl)-N-(5-(1-(trifluoromethyl)cyclopropyl)isoxazol-3-yl)acetamide]
> 8.00: all assays above

O=C(Cc1ccc(-c2cnc3[nH]ccc3c2)cc1)Nc1cc(C2(C(F)(F)F)CC2)on1 [Example 18, 2-(4-(1H-pyrrolo[2,3-b]pyridin-5-yl)phenyl)-N-(5-(1-(trifluoromethyl)cyclopropyl)isoxazol-3-yl)acetamide]
> 8.00: all assays above

O=C(Cc1ccc(-c2cnc3[nH]ncc3c2)cc1F)Nc1cc(C2(C(F)(F)F)CC2)on1 [Example 33, 2-(2-fluoro-4-(1H-pyrazolo[3,4-b]pyridin-5-yl)phenyl)-N-(5-(1-(trifluoromethyl)cyclopropyl)isoxazol-3-yl)acetamide]
> 8.00: all assays above

COc1n[nH]c2ncc(-c3ccc(CC(=O)Nc4cc(C(C)(C)C(F)(F)F)on4)cc3)cc12 [Example 35, 2-(4-(3-methoxy-1H-pyrazolo[3,4-b]pyridin-5-yl)phenyl)-N-(5-(1,1,1-trifluoro-2-methylpropan-2-yl)isoxazol-3-yl)acetamide]
> 8.00: all assays above

pIC50: −log10 of the molar value.
